Values quoted from earlier work in patent US20250161332A1, “NON-PSYCHOACTIVE MULTI-CANNABINOID AND POLYSACCHARIDE AND POLYSACCHAROPEPTIDE-BASED THERAPEUTIC COMPOSITIONS AND METHODS OF THEIR ADMINISTRATIO” (Pebble Global Holdings, priority 2021, published 2025).

Test system: PBLs
Settings: IL-2 100 U/ml, PSK 100 μg/ml; cited from earlier work

Substance: IL-2: IL-2, used at 100 U/ml to stimulate lymphocytes
- proliferation rate: 3 fold
